The target of test [1] is T1, beta-catenin-B-cell lymphoma 9 protein complex (Homo sapiens, UniProt P35222).
The target of test [2] is T1, beta-catenin-B-cell lymphoma 9 protein complex. Description: Inhibition of beta-catenin (unknown origin) to BCL9-FAM (unknown origin) protein-protein interaction preincubated for 2 hrs followed by BCL9 addition and measured after 2 hrs by fluorescence polarization assay. The format is protein-complex assay.

Protein sequences, listed by entry. Tags and fused reporters are not part of them.
UniProt P35222, whole entry: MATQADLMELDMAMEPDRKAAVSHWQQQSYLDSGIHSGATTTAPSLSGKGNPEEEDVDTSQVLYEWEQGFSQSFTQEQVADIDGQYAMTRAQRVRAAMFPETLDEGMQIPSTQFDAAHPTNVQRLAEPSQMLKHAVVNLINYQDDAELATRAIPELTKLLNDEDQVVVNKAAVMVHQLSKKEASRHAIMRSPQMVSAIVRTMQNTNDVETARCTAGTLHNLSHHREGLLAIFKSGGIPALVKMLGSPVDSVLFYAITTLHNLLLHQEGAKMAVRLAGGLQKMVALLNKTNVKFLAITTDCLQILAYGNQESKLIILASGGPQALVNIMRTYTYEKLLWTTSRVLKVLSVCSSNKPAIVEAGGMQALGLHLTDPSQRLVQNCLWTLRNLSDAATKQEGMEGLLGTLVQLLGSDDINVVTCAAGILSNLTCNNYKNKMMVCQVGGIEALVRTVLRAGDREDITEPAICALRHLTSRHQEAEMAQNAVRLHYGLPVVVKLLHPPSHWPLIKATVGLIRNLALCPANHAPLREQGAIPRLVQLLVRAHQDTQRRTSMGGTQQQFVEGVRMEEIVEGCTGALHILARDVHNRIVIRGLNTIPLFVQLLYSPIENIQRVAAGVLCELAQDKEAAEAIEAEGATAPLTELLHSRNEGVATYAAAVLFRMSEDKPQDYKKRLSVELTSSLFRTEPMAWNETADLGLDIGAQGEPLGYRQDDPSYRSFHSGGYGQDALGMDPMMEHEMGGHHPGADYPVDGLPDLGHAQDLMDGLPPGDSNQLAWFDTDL

Broadly, the IC50 is the concentration that gives 50% inhibition. For the molecule `O=c1c(O)c(-c2ccc(O)c(O)c2)oc2cc(O)cc(O)c12` [QUERCETIN], the concentration for half-maximal inhibition (IC50) in test [1] and in test [2] was 10.1 µM throughout.
